The values below are quoted from earlier work in patent US6326139A (priority 1997, dated 2001).

The structures appear in SMILES notation.

The conditions of data set [1]: vs physostigmine; cited from earlier work.
The subject of a further data set is CNS. To be noted: REM sleep; cited from earlier work.

Consider `CCN(C)C(=O)Oc1cccc([C@H](C)N(C)C)c1` [SDZ ENA-713], for which the “central selectivity and duration of action” value in data set [1] was “greater central selectivity and longer duration of action than physostigmine”. Further, the “frequency of rapid eye movements” value in the data set on CNS is “increase the frequency of rapid eye movements during REM sleep”.
